For the test, the target named is cloned human MC4R (Homo sapiens, UniProt P32245). Description: Membrane binding assay: competitive inhibition of [125I]NDP-α-MSH binding. Particulars: for Displacement Rate (%) (at 10 μM): [125I]NDP-α-MSH displacement; for IC50: read-out: MC4R IC50.

Chains of the proteins cited; added tags and fusions are not shown.
UniProt P32245, whole entry: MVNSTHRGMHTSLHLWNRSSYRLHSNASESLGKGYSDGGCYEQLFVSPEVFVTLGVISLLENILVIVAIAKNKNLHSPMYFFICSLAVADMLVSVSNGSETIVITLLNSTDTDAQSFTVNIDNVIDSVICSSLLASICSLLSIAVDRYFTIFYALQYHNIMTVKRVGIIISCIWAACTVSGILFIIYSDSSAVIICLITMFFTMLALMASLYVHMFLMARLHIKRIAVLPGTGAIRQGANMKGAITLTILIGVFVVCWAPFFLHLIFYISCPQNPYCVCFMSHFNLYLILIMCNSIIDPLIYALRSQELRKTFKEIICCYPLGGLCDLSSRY

SMILES strings stand for the structures. Read-outs that look alike come from different tables or passages of the source. A value given as a limit tells only on which side of the number the result lay.

As usually defined, the IC50 is the concentration that gives 50% inhibition. Take `N[C@@H](Cc1ccc(OCc2ccccc2CCc2ccccc2)cc1)C(=O)N1CCN(Cc2cccc(Cl)c2Cl)CC1`: where the note is “tested form: bis-TFA”, the “Displacement Rate (%) (at 10 μM)” value is given as “+++ (+++ = 91-100)” and the concentration for half-maximal inhibition (IC50) is below 1500 nM.
With `Cc1cccc(OCCOc2ccc(C[C@H](N)C(=O)N3CCN(Cc4cccc(Cl)c4Cl)CC3)cc2)c1`, under “tested form: TFA”, the “Displacement Rate (%) (at 10 μM)” value is given as “+++ (+++ = 91-100)” and the IC50 is below 1500 nM.
Turning to `CCOc1ccccc1-c1ccc(C[C@H](N)C(=O)N2CCN(Cc3cccc(Cl)c3Cl)CC2)cc1`, for the setting “tested form: HCl”, the “Displacement Rate (%) (at 10 μM)” value is recorded as “+++ (+++ = 91-100)” and the IC50 lay within 1500 to 3000 nM.
For `N[C@@H](Cc1ccc(OCCc2cccs2)cc1)C(=O)N1CCN(Cc2cccc(Cl)c2Cl)CC1`, for the setting “tested form: TFA”, the “Displacement Rate (%) (at 10 μM)” value was “+++ (+++ = 91-100)” and the IC50 is below 1500 nM.
On to `N[C@@H](Cc1ccc(OCCOc2c(F)c(F)c(F)c(F)c2F)cc1)C(=O)N1CCN(Cc2cccc(Cl)c2Cl)CC1`, for which, for the setting “tested form: TFA salt”, the “Displacement Rate (%) (at 10 μM)” value was “+++ (+++ = 91-100)” and the IC50 was below 1500 nM.
For `CC(C)SCCOc1ccc(C[C@H](N)C(=O)N2CCN(Cc3cccc(Cl)c3Cl)CC2)cc1`, for the setting “tested form: bis-TFA”, the “Displacement Rate (%) (at 10 μM)” value is on record as “++ (++ = 71-90)” and the IC50 fell in the range of 1500 to 3000 nM.
On to `N[C@@H](Cc1ccc(OCCSc2ccccc2)cc1)C(=O)N1CCN(Cc2cccc(Cl)c2Cl)CC1`, for which, where the note is “tested form: TFA”, the “Displacement Rate (%) (at 10 μM)” value is “+++ (+++ = 91-100)” and the IC50 was 1500 to 3000 nM.
Turning to `N[C@@H](Cc1ccc(OCC2CC2)cc1)C(=O)N1CCN(Cc2cccc(Cl)c2Cl)CC1`, where the note is “tested form: bis-TFA”, the “Displacement Rate (%) (at 10 μM)” value is listed as “++ (++ = 71-90)” and the concentration for half-maximal inhibition (IC50) is above 3000 nM.
In the case of `N[C@@H](Cc1ccc(OCC2CCCC2)cc1)C(=O)N1CCN(Cc2cccc(Cl)c2Cl)CC1`, under “tested form: TFA”, the “Displacement Rate (%) (at 10 μM)” value is on record as “+++ (+++ = 91-100)” and the IC50 is below 1500 nM.
With `CC(C)c1cccc(-c2ccc(C[C@H](N)C(=O)N3CCN(Cc4cccc(Cl)c4Cl)CC3)cc2)c1`, where the note is “tested form: HCl”, the “Displacement Rate (%) (at 10 μM)” value was “+++ (+++ = 91-100)” and the IC50 is below 1500 nM.
On to `N[C@@H](Cc1ccc(OC2CCCC2)cc1)C(=O)N1CCN(Cc2cccc(Cl)c2Cl)CC1`, for which, for the setting “tested form: bis-TFA”, the “Displacement Rate (%) (at 10 μM)” value is listed as “+++ (+++ = 91-100)” and the IC50 was in the range of 1500 to 3000 nM.
In the case of `CC(C)(C)CCOc1ccc(C[C@H](N)C(=O)N2CCN(Cc3cccc(Cl)c3Cl)CC2)cc1`, where the note is “tested form: bis-TFA”, the “Displacement Rate (%) (at 10 μM)” value is “+++ (+++ = 91-100)” and the IC50 was below 1500 nM.
For `N[C@@H](Cc1ccc(OCCOc2ccccc2)cc1)C(=O)N1CCN(Cc2cccc(Cl)c2Cl)CC1`, for the setting “tested form: TFA”, the “Displacement Rate (%) (at 10 μM)” value is listed as “+++ (+++ = 91-100)” and the IC50 is below 1500 nM.
As to `N[C@@H](Cc1ccc(OCCOc2ccccc2Cl)cc1)C(=O)N1CCN(Cc2cccc(Cl)c2Cl)CC1`, under “tested form: TFA”, the “Displacement Rate (%) (at 10 μM)” value is given as “+++ (+++ = 91-100)” and the IC50 is 1500 to 3000 nM.
In the same order, the values of `N[C@@H](Cc1ccc(OCCCC2CCCC2)cc1)C(=O)N1CCN(Cc2cccc(Cl)c2Cl)CC1` are “+++ (+++ = 91-100)” and below 1500 nM.
In the case of `CC(C)CCOc1ccc(C[C@H](N)C(=O)N2CCN(Cc3cccc(Cl)c3Cl)CC2)cc1`, where the note is “tested form: bis-TFA”, the “Displacement Rate (%) (at 10 μM)” value was “+++ (+++ = 91-100)” and the IC50 is below 1500 nM.
As for `N[C@@H](Cc1ccc(OCCc2ccsc2)cc1)C(=O)N1CCN(Cc2cccc(Cl)c2Cl)CC1`, under “tested form: TFA”, the “Displacement Rate (%) (at 10 μM)” value is given as “+++ (+++ = 91-100)” and the 50% inhibitory concentration (IC50) is below 1500 nM.
For `CCCCCCOc1ccc(C[C@H](N)C(=O)N2CCN(Cc3cccc(Cl)c3Cl)CC2)cc1`, where the note is “tested form: TFA”, the “Displacement Rate (%) (at 10 μM)” value was “+++ (+++ = 91-100)” and the IC50 is below 1500 nM.
For `N[C@@H](Cc1ccc(OCCCOc2ccccc2)cc1)C(=O)N1CCN(Cc2cccc(Cl)c2Cl)CC1` the same measures were “+++ (+++ = 91-100)” and below 1500 nM.
